# Like-named read-outs stand apart in the source and are kept apart here.
# Tests used:
# test subject [1] = assay: Bicycle ergometer test at 125 W: effect of active ingredients on heart rate, oxygen demand and heat production (Example 1a); assay type: in vivo, human; details: for Average heart rate after: 10-minute test at 125 W immediately after administration
# test subject [2] = assay: 30-minute bicycle ergometer test at 125 W: test substances alone or with caffeine/amino acid/vitamin product A (Example 6); assay type: in vivo, human; details: alone or with product A as labelled, 30-minute test at 125 W
# [3] = Homo sapiens, 10 min, 1 mg in 20 ml of water, 10-minute test at 125 W, from change in humidity, read-out: Heat production (deviation from the average of all the tests)
# [4] = Homo sapiens, 10 min, 1 mg in 20 ml of water, 10-minute test at 125 W, read-out: Change in the oxygen demand
molecule,measurement,setting,value
CN(C)CCC=C1c2ccccc2CCc2ccccc21 [amitriptyline],Average heart rate after,test subject [1]; 1 mg in 20 ml of water,112.0 per minute
same,change in vivo at 1 mg,test subject [1]; [3],13%
same,change in vivo at 1 mg,test subject [1]; [4],0%
O=C1O[C@H]([C@@H](O)CO)C(O)=C1O [ascorbic acid],Effect on heat production (change from control test without test substances),test subject [2]; 500 mg of ascorbic acid,+380 kJ
same,Effect on oxygen demand (change from control test without test substances),test subject [2]; 500 mg of ascorbic acid,+19 l
O=C1CN=C(c2ccccn2)c2cc(Br)ccc2N1 [bromazepam],Average heart rate after,test subject [1]; 1 mg in 20 ml of water,118.2 per minute
Cn1c(=O)c2c(ncn2C)n(C)c1=O [caffeine],Average heart rate after,test subject [1]; 25 mg in 20 ml of water,97.1 per minute
same,change in vivo at 25 mg,"test subject [1]; Homo sapiens, 10 min, 25 mg in 20 ml of water, 10-minute test at 125 W",-26%
CCOC(=O)n1ccn(C)c1=S [carbimazole],Average heart rate after,test subject [1]; 5 mg in 20 ml of water,104.9 per minute
same,change in vivo at 5 mg,"test subject [1]; Homo sapiens, 10 min, 5 mg in 20 ml of water, 10-minute test at 125 W, from change in humidity, read-out: Heat production (deviation from the average of all the tests)",-26%
same,change in vivo at 5 mg,"test subject [1]; Homo sapiens, 10 min, 5 mg in 20 ml of water, 10-minute test at 125 W, read-out: Change in the oxygen demand",-30%
CNC1=Nc2ccc(Cl)cc2C(c2ccccc2)=[N+]([O-])C1 [chlordiazepoxide],Average heart rate after,test subject [1]; 1 mg in 20 ml of water,110.2 per minute
"CN(C)CC/C=C1/c2ccccc2Sc2ccc(Cl)cc21 [chlorprothixen, chlorprothixene]",Change in the oxygen demand,"test subject [1]; 1 mg in 20 ml of water, 10-minute test at 125 W",0%
same,Average heart rate after,test subject [1]; 1 mg in 20 ml of water,112.0 per minute
same,Heat production (deviation from the average of all the tests),"test subject [1]; 1 mg in 20 ml of water, 10-minute test at 125 W, from change in humidity",+13%
same,Average heart rate before,test subject [1]; 10-minute control test at 125 W before administration,106.1 per minute
CN1CCC[C@@H]1CCO[C@](C)(c1ccccc1)c1ccc(Cl)cc1 [clemastine],Average heart rate after,test subject [1]; 1 mg in 20 ml of water,102.2 per minute
same,change in vivo at 1 mg,test subject [1]; [3],-30%
same,change in vivo at 1 mg,test subject [1]; [4],-37%
CN1C(=O)CC(=O)N(c2ccccc2)c2cc(Cl)ccc21 [clobazam],Average heart rate after,test subject [1]; 1 mg in 20 ml of water,80.8 per minute
CN(C)CCCN1c2ccccc2CCc2ccc(Cl)cc21 [clomipramine],Average heart rate after,test subject [1]; 1 mg in 20 ml of water,117.5 per minute
same,change in vivo at 1 mg,test subject [1]; [3],9%
same,change in vivo at 1 mg,test subject [1]; [4],0%
CN1CCN(C2=Nc3ccccc3Sc3ccc(Cl)cc32)CC1 [clothiapine],Average heart rate after,test subject [1]; 1 mg in 20 ml of water,86.4 per minute
same,change in vivo at 1 mg,test subject [1]; [3],-49%
same,change in vivo at 1 mg,test subject [1]; [4],-51%
COc1ccc2c3c1O[C@H]1[C@@H](O)C=C[C@H]4[C@@H](C2)N(C)CC[C@@]341 [codeine],Average heart rate after,test subject [1]; 0.2 mg in 20 ml of water,98.8 per minute
CN1CCC(=C2c3ccccc3C=Cc3ccccc32)CC1 [cyproheptadine],Average heart rate after,test subject [1]; 0.2 mg in 20 ml of water,81.6 per minute
same,change in vivo at 0.2 mg,"test subject [1]; Homo sapiens, 10 min, 0.2 mg in 20 ml of water, 10-minute test at 125 W, from change in humidity, read-out: Heat production (deviation from the average of all the tests)",-55%
same,change in vivo at 0.2 mg,"test subject [1]; Homo sapiens, 10 min, 0.2 mg in 20 ml of water, 10-minute test at 125 W, read-out: Change in the oxygen demand",-52%
COc1ccc2c(c1)[C@]13CCCC[C@@H]1[C@H](C2)N(C)CC3 [dextromethorphan],Average heart rate after,test subject [1]; 0.2 mg in 20 ml of water,89.2 per minute
CN1C(=O)CN=C(c2ccccc2)c2cc(Cl)ccc21 [diazepam],Average heart rate after,test subject [1]; 1 mg in 20 ml of water,81.0 per minute
CN(C)CCN1C(=O)c2ccccc2N(C)c2ccccc21 [dibenzepin],Average heart rate after,test subject [1]; 1 mg in 20 ml of water,83.6 per minute
same,change in vivo at 1 mg,test subject [1]; [3],-41%
same,change in vivo at 1 mg,test subject [1]; [4],-33%
CN(C)CCOC(C)(c1ccccc1)c1ccccn1 (stereo not drawn) [doxylamine],Average heart rate after,test subject [1]; 4 mg in 20 ml of water,109.5 per minute
same,change in vivo at 4 mg,"test subject [1]; Homo sapiens, 10 min, 4 mg in 20 ml of water, 10-minute test at 125 W, from change in humidity, read-out: Heat production (deviation from the average of all the tests)",0%
same,change in vivo at 4 mg,"test subject [1]; Homo sapiens, 10 min, 4 mg in 20 ml of water, 10-minute test at 125 W, read-out: Change in the oxygen demand",-6%
CN1C(=O)CN=C(c2ccccc2F)c2cc([N+](=O)[O-])ccc21 [flunitrazepam],Average heart rate after,test subject [1]; 1 mg in 20 ml of water,90.1 per minute
COc1ccc(Cl)cc1C(=O)NCCc1ccc(S(=O)(=O)NC(=O)NC2CCCCC2)cc1 [glibenclamide],Effect on heat production (change from control test without test substances),test subject [2]; 2.5 mg of glibenclamide,+400 kJ
same,Effect on oxygen demand (change from control test without test substances),test subject [2]; 2.5 mg of glibenclamide,+20 l
CN(C)CCCN1c2ccccc2CCc2ccccc21 [imipramine],Average heart rate after,test subject [1]; 1 mg in 20 ml of water,110.9 per minute
same,change in vivo at 1 mg,test subject [1]; [3],3%
same,change in vivo at 1 mg,test subject [1]; [4],-2%
Cc1ncc2n1-c1ccc(Cl)cc1C(c1ccccc1F)=NC2 [midazolam],Average heart rate after,test subject [1]; 1 mg in 20 ml of water,83.4 per minute
O=C1CN=C(c2ccccc2)c2cc([N+](=O)[O-])ccc2N1 [nitrazepam],Average heart rate after,test subject [1]; 1 mg in 20 ml of water,119.8 per minute
OCCN1CCN(CCCN2c3ccccc3C=Cc3ccccc32)CC1 [opipramol],Average heart rate after,test subject [1]; 1 mg in 20 ml of water,112.0 per minute
same,change in vivo at 1 mg,test subject [1]; [3],1%
same,change in vivo at 1 mg,test subject [1]; [4],-5%
O=C1Nc2ccc(Cl)cc2C(c2ccccc2)=NC1O (stereo not drawn) [oxazepam],Average heart rate after,test subject [1]; 1 mg in 20 ml of water,116.5 per minute
OC[C@H]1O[C@@](CO)(O[C@H]2O[C@H](CO)[C@@H](O)[C@H](O)[C@H]2O)[C@@H](O)[C@@H]1O [sucrose],Effect on heat production (change from control test without test substances),test subject [2]; 5 g of sucrose,+380 kJ
same,Effect on oxygen demand (change from control test without test substances),test subject [2]; 5 g of sucrose,+19 l
CSc1ccc2c(c1)N(CCC1CCCCN1C)c1ccccc1S2 (stereo not drawn) [thioridazine],Average heart rate after,test subject [1]; 1 mg in 20 ml of water,104.9 per minute
same,change in vivo at 1 mg,test subject [1]; [3],-26%
same,change in vivo at 1 mg,test subject [1]; [4],-31%
CC(CN(C)C)CN1c2ccccc2CCc2ccccc21 (stereo not drawn) [trimipramine],Average heart rate after,test subject [1]; 1 mg in 20 ml of water,109.8 per minute
same,change in vivo at 1 mg,test subject [1]; [3],2%
CN1CCN(C(=O)OC2c3nccnc3C(=O)N2c2ccc(Cl)cn2)CC1 (stereo not drawn) [zopiclone],Average heart rate after,test subject [1]; 1 mg in 20 ml of water,91.8 per minute
H-Arg-Asp-OH,Effect on heat production (change from control test without test substances),test subject [2]; 100 mg of H-Arg-Asp-OH,+260 kJ
same,Effect on oxygen demand (change from control test without test substances),test subject [2]; 100 mg of H-Arg-Asp-OH,+13 l

# — patent US6703371B1, “Preparations for reducing oxygen consumption during physical efforts” (priority 1999, dated 2004)
